Tests used:
Conditions in all cases: 72 h
[1] = tested on: Caco-2; assay: cell viability relative to DMSO; higher = less toxic
[2] = tested on: Calu-3; assay: as above
[3] = tested on: HepG2; assay: as above
[4] = tested on: U2OS; assay: as above
[5] = tested on: Vero E6; assay: as above
[6] = tested on: Caco-2; assay: relative viability EC50 (midpoint between 100% and the lowest measured viability); higher = less toxic
[7] = tested on: Calu-3; assay: as above
[8] = tested on: HepG2; assay: as above
[9] = tested on: U2OS; assay: as above
[10] = tested on: Vero E6; assay: as above
[11] = tested on: Caco-2; assay: drug sensitivity score (DSS) for viability; higher = more toxic; extreme values may be limits of the assay
[12] = tested on: Calu-3; assay: as above
[13] = tested on: HepG2; assay: as above
[14] = tested on: U2OS; assay: as above
[15] = tested on: Vero E6; assay: as above

C[C@@H](N)C(=O)N[C@@H](CO)C(=O)N[C@H](C(=O)N[C@H](C(=O)N[C@H](C(=O)N[C@@H](CC(N)=O)C(=O)N[C@@H](Cc1ccc(O)cc1)C(=O)N[C@H](C(N)=O)[C@@H](C)O)[C@@H](C)O)[C@@H](C)O)[C@@H](C)O [adaptavir]
cell viability [%]
Conditions	[1]	[2]	[3]	[4]	[5]
1 nM	99.6	106	98.4	94.6	107
10 nM	105	86.2	93.1	101	98.5
100 nM	102	91.8	98.7	94.4	103
1000 nM	90.1	106	91.5	97.4	102
10000 nM	102	99.1	97.3	102	97.4

Conditions	drug sensitivity score	relative viability EC50 [µM]
[6]	–	> 10
[7]	–	> 10
[8]	–	> 10
[9]	–	> 10
[10]	–	> 10
[11]	0	–
[12]	0	–
[13]	0	–
[14]	0	–
[15]	0	–

Source: the supplement of paper PMC13380429
